# Laboratory results taken from US9173882B2, “Polycyclic heteroaryl substituted triazoles useful as Axl inhibitors” (Rigel Pharmaceuticals, Inc., priority 2008, dated 2015).
# By UniProt entry, the sequences of proteins in these tests, tags left out. Residues count along the entry.
# UniProt P30530, 26-894 limits assumed: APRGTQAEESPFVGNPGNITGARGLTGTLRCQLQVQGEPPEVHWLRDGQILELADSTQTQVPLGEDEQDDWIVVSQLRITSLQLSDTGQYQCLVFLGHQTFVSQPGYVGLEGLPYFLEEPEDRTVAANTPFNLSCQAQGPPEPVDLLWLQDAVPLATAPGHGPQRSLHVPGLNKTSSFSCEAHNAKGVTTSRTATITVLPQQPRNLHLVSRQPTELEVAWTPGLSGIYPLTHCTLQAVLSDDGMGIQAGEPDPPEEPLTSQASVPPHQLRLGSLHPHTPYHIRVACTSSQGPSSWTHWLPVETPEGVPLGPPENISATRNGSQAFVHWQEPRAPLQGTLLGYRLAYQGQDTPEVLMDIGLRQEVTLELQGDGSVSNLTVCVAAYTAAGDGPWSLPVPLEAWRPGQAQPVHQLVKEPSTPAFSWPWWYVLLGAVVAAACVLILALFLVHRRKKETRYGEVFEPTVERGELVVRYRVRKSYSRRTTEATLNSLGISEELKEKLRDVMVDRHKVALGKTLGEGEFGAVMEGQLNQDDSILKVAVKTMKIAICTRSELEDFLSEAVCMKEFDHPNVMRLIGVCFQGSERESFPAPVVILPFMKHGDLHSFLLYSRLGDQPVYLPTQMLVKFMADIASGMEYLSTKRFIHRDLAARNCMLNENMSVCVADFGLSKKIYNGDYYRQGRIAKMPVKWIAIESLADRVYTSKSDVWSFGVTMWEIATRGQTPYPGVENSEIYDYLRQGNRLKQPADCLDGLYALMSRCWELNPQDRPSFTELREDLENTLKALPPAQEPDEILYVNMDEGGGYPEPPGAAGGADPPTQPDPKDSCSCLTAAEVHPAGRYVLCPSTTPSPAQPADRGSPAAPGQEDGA
# Biological target: Axl (Homo sapiens, UniProt P30530)
# Experiment: Phospho-Akt in-cell Western assay
# Conditions: Hela cells, stimulated by Axl-antibody cross-linking, phospho-Akt chemiluminescence; Table 1, formula (Ia)
# Description: Phospho-Akt in-Cell Western Assay
# The compounds of the invention were tested in the following assay for their ability to inhibit Axl activity. […]
structure (smiles),measurement,value
Nc1nc(Nc2ccc3c(c2)CC[C@@H](NCc2ccc(Cl)s2)CC3)nn1-c1cc2c(nn1)-c1ccccc1CCC2,IC50,1 to 10 µM
